Data on one substance can be found in PMC8437308 (Journal of the American Chemical Society, 2021).

The data set has as its system Chinese Hamster Ovarian (CHO) cells. The data set can be described thus: Cell viability after incubation with CHO cells. As to conditions: four-hour incubation with CHO cells at 5 μM, 10 μM and 50 μM.

Turning to acetamide-glutathione [7c], the “Toxicity towards CHO cells (% cell viability)” value was “no appreciable toxicity up to 50 μM”.
